The values that follow come from PubChem BioAssay AID652067 (The Scripps Research Institute Molecular Screening Center, 2013).

The list shows a part of the results, in another mix than the full data. The source made the active and inactive calls.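 The calls were made as follows: active = activation above the mean of all tested compounds plus 3 SD (cut at about 5.5% in these data); inactive = the rest.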

The assay deals with DAF-12 nuclear receptor (Haemonchus contortus). Description: hcDAF-12 driven luciferase reporter activation – cell-based, luminescence, HEK293, lit1-tk-luc reporter, primary screen (AID 652067).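 Also: 100% = response to 3 µM Δ7-dafachronic acid high control.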 To be noted: HEK293 hcDAF-12 lit1-tk-luc reporter, at 6.8 µM, stronger effect = higher value, 0% DMSO, 100% Δ7-dafachronic acid.
Take `CCC(=O)N(c1ccccc1)C1(COC)CCN(CCc2cccs2)CC1`: the activation is inactive: 1.18%. In the case of `CCC(=O)N(c1ccccc1)C1(COC)CCN(CCn2nnn(CC)c2=O)CC1` it was inactive: -1.9%.
